This passage reports Activity and inhibition results from ChEMBL document CHEMBL1123051, “In the search for new anticancer drugs. 13. Phosphonic and phosphinic analogues of ornithine” (1985).

By inhibition is commonly meant the percentage by which the read-out fell short of the control.

Active and inactive are the calls of the source. The calls are words filed in the database; no cut-off is given here.

For assay [1], the target named is T1, Ornithine decarboxylase (Rattus norvegicus) (UniProt P09057).
T1 sequence (whole entry): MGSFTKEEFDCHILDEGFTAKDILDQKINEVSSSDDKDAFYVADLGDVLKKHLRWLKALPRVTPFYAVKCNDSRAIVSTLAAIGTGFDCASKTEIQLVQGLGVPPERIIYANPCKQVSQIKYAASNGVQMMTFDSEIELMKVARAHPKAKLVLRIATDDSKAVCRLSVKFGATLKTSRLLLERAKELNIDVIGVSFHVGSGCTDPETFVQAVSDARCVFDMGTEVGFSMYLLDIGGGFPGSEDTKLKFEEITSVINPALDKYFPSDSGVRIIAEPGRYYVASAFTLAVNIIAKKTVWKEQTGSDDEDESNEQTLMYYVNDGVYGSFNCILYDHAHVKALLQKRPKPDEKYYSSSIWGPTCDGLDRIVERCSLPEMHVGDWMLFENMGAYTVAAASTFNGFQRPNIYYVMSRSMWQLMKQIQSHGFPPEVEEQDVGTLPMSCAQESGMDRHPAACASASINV
Description: Compound was tested for its inhibition against ornithine decarboxylase from rat liver at low concentration; NA means not active.

Assay [2] has as its target T1, Ornithine decarboxylase (Rattus norvegicus). As to the kind of experiment: Compound was tested for its inhibition against ornithine decarboxylase from rat liver at 5 mM concentration.

As to `CC(N)(CCCN)OP(O)O` (configuration not stated), the result in assay [1] was inactive.
On to `NCCCC(N)OP(O)O` (configuration not stated), for which, in assay [2], the inhibition is 40%.
